Reference: ChEMBL document CHEMBL1130385, “Synthesis and biological activities of conformationally restricted, tricyclic nonclassical antifolates as inhibitors of dihydrofolate reductases” (J Med Chem, 1997)

Tests used:
Dihydrofolate reductase = target: T1, Dihydrofolate reductase (Pneumocystis carinii, UniProt P16184)
T1 sequence (P16184 whole entry): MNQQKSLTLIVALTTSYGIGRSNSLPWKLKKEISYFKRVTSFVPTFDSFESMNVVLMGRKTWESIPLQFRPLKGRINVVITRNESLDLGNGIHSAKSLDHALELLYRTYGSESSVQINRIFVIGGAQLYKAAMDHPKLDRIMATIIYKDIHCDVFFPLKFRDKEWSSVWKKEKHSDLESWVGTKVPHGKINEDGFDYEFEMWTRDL

[1] = target: T2, Bifunctional dihydrofolate reductase-thymidylate synthase (Toxoplasma gondii, UniProt Q07422); assay: Inhibitory concentration against Toxoplasma gondii Dihydrofolate reductase
T2 sequence (Q07422 whole entry): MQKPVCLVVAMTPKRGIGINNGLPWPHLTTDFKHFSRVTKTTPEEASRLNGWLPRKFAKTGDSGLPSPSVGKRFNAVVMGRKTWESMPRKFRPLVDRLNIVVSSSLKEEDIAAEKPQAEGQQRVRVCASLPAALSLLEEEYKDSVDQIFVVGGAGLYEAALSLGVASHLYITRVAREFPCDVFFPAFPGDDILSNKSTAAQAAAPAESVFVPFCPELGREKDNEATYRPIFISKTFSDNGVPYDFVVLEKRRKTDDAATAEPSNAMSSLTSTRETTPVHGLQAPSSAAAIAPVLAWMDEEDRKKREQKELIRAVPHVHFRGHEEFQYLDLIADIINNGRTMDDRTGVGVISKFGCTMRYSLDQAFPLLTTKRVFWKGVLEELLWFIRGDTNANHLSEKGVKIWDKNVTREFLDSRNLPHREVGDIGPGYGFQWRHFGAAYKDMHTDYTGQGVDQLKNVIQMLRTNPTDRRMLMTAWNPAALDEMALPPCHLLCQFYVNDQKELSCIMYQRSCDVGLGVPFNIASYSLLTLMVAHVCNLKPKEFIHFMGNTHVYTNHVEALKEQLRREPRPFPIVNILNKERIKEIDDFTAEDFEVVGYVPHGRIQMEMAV

| SMILES | IC50 (Dihydrofolate reductase) [µM] | IC50 [1] [µM] |
| --- | --- | --- |
| COc1cc(N2C=C3C(=O)N=c4nc(N)nc(N)c4=C3CC2)cc(OC)c1OC | 4.28 | – |
| COc1cc(N2C=Cc3c(cnc4nc(N)nc(N)c34)C2)cc(OC)c1OC | 4.6 | – |
| COc1c(Cl)c(-n2ccc3c4c(N)nc(N)nc4nc(=O)c-3c2)c(Cl)c(OC)c1OC | – | 2.3 |
| COc1cc(N2CCC3c4c(N)nc(N)nc4NCC3C2)cc(OC)c1OC (centres undefined) | 2.2 | – |
